Measured values taken from patent US20070004724A1, “(+)-(2S,3s)-2-(3-chlorophenyl)-3,5,5-trimethyl-2-morpholinor for treating anxiety” (priority 2003, published 2007).

The chains behind the UniProt entries cited, without tags or fusion partners.
UniProt Q01959, whole entry: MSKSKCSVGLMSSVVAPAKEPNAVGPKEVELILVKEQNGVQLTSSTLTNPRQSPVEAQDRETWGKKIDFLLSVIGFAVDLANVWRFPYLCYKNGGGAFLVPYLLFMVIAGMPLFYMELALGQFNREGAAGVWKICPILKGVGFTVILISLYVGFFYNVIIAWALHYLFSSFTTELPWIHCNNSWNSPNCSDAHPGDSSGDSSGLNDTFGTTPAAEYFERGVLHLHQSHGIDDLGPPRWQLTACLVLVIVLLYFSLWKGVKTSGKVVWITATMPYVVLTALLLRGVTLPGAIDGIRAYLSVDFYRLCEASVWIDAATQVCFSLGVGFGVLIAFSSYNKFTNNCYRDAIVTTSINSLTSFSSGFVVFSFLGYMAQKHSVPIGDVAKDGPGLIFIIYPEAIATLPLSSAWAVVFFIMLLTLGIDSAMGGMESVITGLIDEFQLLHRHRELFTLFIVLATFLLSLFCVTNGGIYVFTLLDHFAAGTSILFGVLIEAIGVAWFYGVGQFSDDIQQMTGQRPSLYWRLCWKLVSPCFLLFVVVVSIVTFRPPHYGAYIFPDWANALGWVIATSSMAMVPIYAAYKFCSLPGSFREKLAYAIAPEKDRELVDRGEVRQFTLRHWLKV
UniProt P31645, whole entry: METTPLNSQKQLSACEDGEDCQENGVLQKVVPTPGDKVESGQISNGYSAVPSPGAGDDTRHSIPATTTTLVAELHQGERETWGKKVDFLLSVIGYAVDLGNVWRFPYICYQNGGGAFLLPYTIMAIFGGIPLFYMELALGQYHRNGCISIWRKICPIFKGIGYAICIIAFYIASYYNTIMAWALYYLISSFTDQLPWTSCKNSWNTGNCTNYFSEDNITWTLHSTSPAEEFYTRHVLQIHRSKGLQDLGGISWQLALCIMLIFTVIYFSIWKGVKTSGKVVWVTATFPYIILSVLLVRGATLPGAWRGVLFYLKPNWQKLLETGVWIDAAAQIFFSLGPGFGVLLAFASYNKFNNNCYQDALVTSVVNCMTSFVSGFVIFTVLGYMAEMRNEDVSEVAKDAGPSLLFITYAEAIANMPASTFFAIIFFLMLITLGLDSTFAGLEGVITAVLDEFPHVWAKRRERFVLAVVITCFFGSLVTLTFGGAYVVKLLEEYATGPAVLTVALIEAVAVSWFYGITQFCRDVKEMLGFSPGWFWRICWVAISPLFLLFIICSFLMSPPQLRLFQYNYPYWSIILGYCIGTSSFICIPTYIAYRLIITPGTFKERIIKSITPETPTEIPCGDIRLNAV

Experiments:
[1] = molecular target: T1, human dopamine transporter (hDAT) (Homo sapiens, UniProt Q01959); assay: Functional reuptake inhibition, CHO-K1/hDAT cells; format: cell-based
T1 construct: expressed in transfected cells; host or cells: CHO-K1 cells
Protocol: Reduction of [^3H]Dopamine uptake by 50 percent or more (≧50%) relative to vehicle controls indicates significant inhibitory activity.
Compounds were screened at 10, 1, 0.1, 0.01 and 0.001 μM. […] Radioactivity retained on the filters was determined by scintillation counting overnight using a Packard scintillation counter.

[2] = molecular target: T2, human serotonin transporter (hSERT) (Homo sapiens, UniProt P31645); assay: Functional reuptake inhibition, HEK-293/hSERT cells; format: cell-based
T2 construct: expressed in transfected cells; host or cells: HEK-293 cells
Protocol: Three separate cell-lines expressing human monoamine transporters for dopamine (hDAT) noradrenaline (hNET) and serotonin (hSERT) were used to measure the functional reuptake inhibiting properties of the compound of formula (I) (as its hydrochloride salt). The following methods were utilised.
Human serotonin transporter (hSERT): HEK-293/hSERT cells (5×10^4 cells/tube) expressing the human serotonin transporter (hSERT) were added into the minitube on 96-tube holder prior to assay. Cells were preincubated with test compound or vehicle in modified Tris-HEPES buffer pH 7.1 at 25° C. for 20 minutes, then 65 nM [^3H]Serotonin was added to make the total volume to 200 μl and further incubated for 10 minutes. Cells were then washed by filtration through cell harvester four times with PBS buffer containing 0.1% BSA and the GF/B filter was counted to determine [^3H]Serotonin uptake. Non-specific signal was determined in the presence of 10 μM fluoxetine. […]
Compounds were screened at 10, 1, 0.1, 0.01 and 0.001 μM. These same concentrations were concurrently applied to a separate group of untreated cells and evaluated for possible compound-induced cytotoxicity only if significant inhibition of uptake was observed. Radioactivity retained on the filters was determined by scintillation counting overnight using a Packard scintillation counter.

C[C@@H]1NC(C)(C)CO[C@@]1(O)c1cccc(Cl)c1 [Formula (I). HCl, (+)-(2S,3S)-2-(3-chlorophenyl)-3,5,5-trimethyl-2-morpholinol hydrochloride]
IC50 ([1]; [3H]Dopamine uptake, mean±SEM, n=3, read-out: hDAT IC50): 440 ± 10 nM | IC50 ([1]; reuptake inhibition, read-out: pIC50 hDAT (converted)): 437 nM | IC50 [2]: > 10 µM

Counter-ions that a name gives are not always drawn. Like-named read-outs stand apart in the source and are kept apart here.
